Protein sequences, listed by entry. Tags and fused reporters are not part of them. Residues count along the entry.
UniProt Q786F3, 113-550: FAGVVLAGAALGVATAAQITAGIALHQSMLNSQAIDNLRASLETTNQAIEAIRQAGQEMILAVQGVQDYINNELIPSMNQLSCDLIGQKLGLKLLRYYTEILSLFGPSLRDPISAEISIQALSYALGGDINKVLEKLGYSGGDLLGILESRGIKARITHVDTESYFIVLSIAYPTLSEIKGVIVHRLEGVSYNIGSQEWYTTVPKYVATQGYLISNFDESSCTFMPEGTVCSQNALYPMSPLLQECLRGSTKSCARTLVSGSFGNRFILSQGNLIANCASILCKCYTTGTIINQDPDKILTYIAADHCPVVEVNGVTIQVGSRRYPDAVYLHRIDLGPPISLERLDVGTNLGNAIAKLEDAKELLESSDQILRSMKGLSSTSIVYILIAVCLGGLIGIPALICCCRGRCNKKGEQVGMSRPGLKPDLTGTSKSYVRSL
UniProt Q786F3, 24-112: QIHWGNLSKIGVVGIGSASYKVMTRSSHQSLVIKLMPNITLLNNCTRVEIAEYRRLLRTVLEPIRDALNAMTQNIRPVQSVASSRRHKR

In patent US20230014151A1, “COMBINATION ANTIVIRAL THERAPY FOR MEASLES” (The Trustees of Columbia University in the City of New York, priority 2019, published 2023):

How the values were obtained:
[1] = test system: viral glycoproteins (H and F); CD150; assay: beta-galactosidase complementation-based fusion assay, CD150 target cells; details: for IC90: read-out: CD150 IC90
[2] = molecular target: viral glycoproteins (H and F); Nectin-4 (Measles virus, UniProt Q786F3); assay: beta-galactosidase complementation-based fusion assay, Nectin-4 target cells

Row | SMILES | IC90 [1] [nM] | IC90 ([2]; read-out: Nectin4 IC90) [nM] | IC90 [2] [nM] | IC50 [1] [nM] | IC50 ([2]; Nectin4 IC50, Table 3 (extended version)) [nM]
1 | CC[C@H](C)[C@H](NC(=O)[C@H](C)NC(=O)[C@H](CC(N)=O)NC(=O)CNC(=O)[C@H](CC(C)C)NC(=O)[C@H](CC(N)=O)NC(=O)[C@@H](NC(=O)CNC(=O)[C@@H](NC(=O)[C@H](CC(=O)O)NC(=O)[C@H](CC(C)C)NC(=O)[C@H](CCCNC(=N)N)NC(=O)[C@H](CCC(=O)O)NC(=O)[C@H](CC(C)C)NC(=O)[C@H](CO)NC(=O)[C@@H](NC(=O)[C@@H]1CCCN1C(=O)[C@@H]1CCCN1C(=O)CNC(=O)[C@H](CO)NC(=O)CNC(=O)[C@H](CO)NC(=O)CNC(=O)CNC(=O)[C@H](Cc1ccccc1)NC(=O)[C@@H](Cc1ccccc1)NC(=O)OCc1ccccc1)[C@@H](C)CC)C(C)C)[C@@H](C)O)C(=O)N[C@@H](C)C(=O)N[C@@H](CCCCN)C(=O)N[C@@H](CC(C)C)C(=O)N[C@@H](CCC(=O)O)C(=O)N[C@@H](CC(=O)O)C(=O)N[C@@H](C)C(=O)N[C@@H](CCCCN)C(=O)N[C@@H](CCC(=O)O)C(=O)N[C@@H](CC(C)C)C(=O)N[C@@H](CC(C)C)C(=O)N[C@@H](CCC(=O)O)C(=O)N[C@@H](CO)C(=O)N[C@@H](CO)C(=O)N[C@@H](CC(=O)O)C(=O)N[C@@H](CCC(N)=O)C(=O)N[C@H](C(=O)N[C@@H](CC(C)C)C(=O)N[C@@H](CCCNC(=N)N)C(=O)NCC(=O)N[C@@H](CO)C(=O)NCC(=O)N[C@@H](CO)C(=O)NCC(=O)N[C@@H](CSCC(=O)NCCOCCOCCOCCOCCOCCOCCOCCOCCOCCOCCOCCOCCOCCOCCOCCOCCOCCOCCOCCOCCOCCOCCOCCOCCC(=O)O[C@H]1CC[C@@]2(C)C(=CC[C@H]3[C@@H]4CC[C@H]([C@H](C)CCCC(C)C)[C@@]4(C)CC[C@@H]32)C1)C(=O)O)[C@@H](C)CC [peg24 chol [FIP-HRC450-485]] | > 900 | 886 ± 103 | – | – | –
2 | CC[C@H](C)[C@H](NC(=O)[C@H](C)NC(=O)[C@H](CC(N)=O)NC(=O)CNC(=O)[C@H](CC(C)C)NC(=O)[C@H](CC(N)=O)NC(=O)[C@@H](NC(=O)CNC(=O)[C@@H](NC(=O)[C@H](CC(=O)O)NC(=O)[C@H](CC(C)C)NC(=O)[C@H](CCCNC(=N)N)NC(=O)[C@H](CCC(=O)O)NC(=O)[C@H](CC(C)C)NC(=O)[C@H](CO)NC(=O)[C@@H](NC(=O)[C@@H]1CCCN1C(=O)[C@@H]1CCCN1C(=O)CNC(=O)[C@H](CO)NC(=O)CNC(=O)[C@H](CO)NC(=O)CNC(=O)CNC(=O)[C@H](Cc1ccccc1)NC(=O)[C@@H](Cc1ccccc1)NC(=O)OCc1ccccc1)[C@@H](C)CC)C(C)C)[C@@H](C)O)C(=O)N[C@@H](C)C(=O)N[C@@H](CCCCN)C(=O)N[C@@H](CC(C)C)C(=O)N[C@@H](CCC(=O)O)C(=O)N[C@@H](CC(=O)O)C(=O)N[C@@H](C)C(=O)N[C@@H](CCCCN)C(=O)N[C@@H](CCC(=O)O)C(=O)N[C@@H](CC(C)C)C(=O)N[C@@H](CC(C)C)C(=O)N[C@@H](CCC(=O)O)C(=O)N[C@@H](CO)C(=O)N[C@@H](CO)C(=O)N[C@@H](CC(=O)O)C(=O)N[C@@H](CCC(N)=O)C(=O)N[C@H](C(=O)N[C@@H](CC(C)C)C(=O)N[C@@H](CCCNC(=N)N)C(=O)NCC(=O)N[C@@H](CO)C(=O)NCC(=O)N[C@@H](CO)C(=O)NCC(=O)N[C@@H](CSCC(=O)NCCOCCOCCOCCOCCC(=O)O[C@H]1CC[C@@]2(C)C(=CC[C@H]3[C@@H]4CC[C@H]([C@H](C)CCCC(C)C)[C@@]4(C)CC[C@@H]32)C1)C(=O)O)[C@@H](C)CC [FIP-HRC450-485-peg4-chol] | > 700 | 614 ± 245 | 614 ± 245 | – | –
3 | CC[C@H](C)[C@H](NC(=O)[C@H](C)NC(=O)[C@H](CC(N)=O)NC(=O)CNC(=O)[C@H](CC(C)C)NC(=O)[C@H](CC(N)=O)NC(=O)[C@@H](NC(=O)CNC(=O)[C@@H](NC(=O)[C@H](CC(=O)O)NC(=O)[C@H](CC(C)C)NC(=O)[C@H](CCCNC(=N)N)NC(=O)[C@H](CCC(=O)O)NC(=O)[C@H](CC(C)C)NC(=O)[C@H](CO)NC(=O)[C@@H](NC(=O)[C@@H]1CCCN1C(=O)[C@@H]1CCCN1C(=O)CNC(=O)[C@H](CO)NC(=O)CNC(=O)[C@H](CO)NC(=O)CNC(=O)CNC(=O)[C@H](Cc1ccccc1)NC(=O)[C@@H](Cc1ccccc1)NC(=O)OCc1ccccc1)[C@@H](C)CC)C(C)C)[C@@H](C)O)C(=O)N[C@@H](C)C(=O)N[C@@H](CCCCN)C(=O)N[C@@H](CC(C)C)C(=O)N[C@@H](CCC(=O)O)C(=O)N[C@@H](CC(=O)O)C(=O)N[C@@H](C)C(=O)N[C@@H](CCCCN)C(=O)N[C@@H](CCC(=O)O)C(=O)N[C@@H](CC(C)C)C(=O)N[C@@H](CC(C)C)C(=O)N[C@@H](CCC(=O)O)C(=O)N[C@@H](CO)C(=O)N[C@@H](CO)C(=O)N[C@@H](CC(=O)O)C(=O)N[C@@H](CCC(N)=O)C(=O)N[C@H](C(=O)N[C@@H](CC(C)C)C(=O)N[C@@H](CCCNC(=N)N)C(=O)N[C@@H](CSCC(=O)O[C@H]1CC[C@@]2(C)C(=CC[C@H]3[C@@H]4CC[C@H]([C@H](C)CCCC(C)C)[C@@]4(C)CC[C@@H]32)C1)C(=O)O)[C@@H](C)CC [FIP-HRC450-485-chol (no GSGSG)] | 389 ± 22.1 | 540 ± 338 | – | 70.8 ± 65.3 | 85.9 ± 56.3

Like-named read-outs stand apart in the source and are kept apart here.
